One experiment concerns the target T1, beta-catenin/TCF4 (Homo sapiens, UniProt P35222).
T1 construct: expressed in transfected cells; host or cells: HEK293 cells
As to the kind of experiment: Nano-BRET target engagement assay (HEK293 cells). It is filed as cell-based.

Sequences of proteins named here, by UniProt entry; tags and fusion partners are left off.
UniProt P35222, whole entry: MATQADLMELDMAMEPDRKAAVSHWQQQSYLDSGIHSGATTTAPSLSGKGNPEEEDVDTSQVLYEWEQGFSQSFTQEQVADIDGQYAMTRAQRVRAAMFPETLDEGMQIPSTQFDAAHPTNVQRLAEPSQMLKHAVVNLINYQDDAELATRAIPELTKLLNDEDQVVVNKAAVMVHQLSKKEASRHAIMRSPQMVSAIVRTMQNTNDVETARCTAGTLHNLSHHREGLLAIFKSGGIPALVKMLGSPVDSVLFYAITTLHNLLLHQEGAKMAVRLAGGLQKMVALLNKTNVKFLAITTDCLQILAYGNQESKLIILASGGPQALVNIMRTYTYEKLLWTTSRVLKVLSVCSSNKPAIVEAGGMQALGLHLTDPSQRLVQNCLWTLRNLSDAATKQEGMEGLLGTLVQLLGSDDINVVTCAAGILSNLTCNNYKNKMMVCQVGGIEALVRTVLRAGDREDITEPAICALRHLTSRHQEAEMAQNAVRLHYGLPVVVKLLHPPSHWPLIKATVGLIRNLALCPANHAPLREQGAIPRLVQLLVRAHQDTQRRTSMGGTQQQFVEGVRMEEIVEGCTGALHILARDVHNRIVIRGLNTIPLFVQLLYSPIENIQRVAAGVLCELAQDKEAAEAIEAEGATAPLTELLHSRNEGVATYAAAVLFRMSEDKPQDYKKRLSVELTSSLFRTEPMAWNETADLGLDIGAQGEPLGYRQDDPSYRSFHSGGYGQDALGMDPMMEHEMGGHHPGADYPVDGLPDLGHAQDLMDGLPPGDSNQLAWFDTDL

The target of the next experiment is beta-catenin (Homo sapiens, UniProt P35222). Kind of experiment: fluorescence polarization binding to beta-catenin. Conditions: beta-Catenin FP IC50 (nM). Background: In fluorescence polarisation assays a small probe gives low polarisation when free and higher when bound to something large.

Where only a bound is given, the exact number is not on record here.

Turning to `CC(=O)N1CCC[C@]12CC=CCCCC1(CCCC=CCCCOC(=O)N3CC[C@@]4(C3)NC(=O)[C@H](CSc3c(F)c(F)c(c(F)c3F)SC[C@@H](C(=O)N[C@@H](C)C(N)=O)NC(=O)[C@H](Cc3csc5ccccc35)NC(=O)[C@H](Cc3ccccc3C(F)(F)F)NC4=O)NC(=O)[C@H](Cc3ccccc3)NC(=O)[C@H](C)NC(=O)C(C)(C)NC(=O)[C@H](Cc3cccc(C(=O)O)c3)NC(=O)[C@H](CC(=O)O)NC1=O)NC(=O)[C@H](CC(C)(C)C)NC(=O)[C@H](CC(=O)O)NC2=O` (stereo partly drawn) [I-339, Ac-PL3-Asp-Npg-B5-Asp-3COOHF-Aib-Ala-Phe-[4FB]Cys-PyrS2-2F3MeF-BztA-Cys-Ala-NH2], the values for the IC50 against beta-catenin/TCF4 and on beta-catenin were more than 10000 nM and 200 to 750 nM, respectively.

`CC(=O)N1CCC[C@]12CC=CCCCC1(CCCC=CCCCOC(=O)N3CC[C@@]4(C3)NC(=O)[C@H](CSCc3cccc(c3)CSC[C@@H](C(=O)N[C@@H](C)C(N)=O)NC(=O)[C@H](Cc3csc5ccccc35)NC(=O)[C@H](Cc3ccccc3C(F)(F)F)NC4=O)NC(=O)[C@H](Cc3ccccc3)NC(=O)[C@H](C)NC(=O)C(C)(C)NC(=O)[C@H](Cc3cccc(C(=O)O)c3)NC(=O)[C@H](CC(=O)O)NC1=O)NC(=O)[C@H](CC(C)(C)C)NC(=O)[C@H](CC(=O)O)NC2=O` (stereo partly drawn) [I-375, Ac-PL3-Asp-Npg-B5-Asp-3COOHF-Aib-Ala-Phe-[mXyl]Cys-PyrS2-2F3MeF-BztA-Cys-Ala-NH2]: the IC50 (usually the concentration at which inhibition is half-maximal) at beta-catenin/TCF4 was 3000 to 10000 nM; at beta-catenin it was less than 50 nM.

`CC(=O)N1CCC[C@]12CC=CCCCC1(CCCC=CCCCOC(=O)N3CC[C@@]4(C3)NC(=O)[C@H](CSCc3ccccc3CSC[C@@H](C(=O)N[C@@H](C)C(N)=O)NC(=O)[C@H](Cc3csc5ccccc35)NC(=O)[C@H](Cc3ccccc3C(F)(F)F)NC4=O)NC(=O)[C@H](Cc3ccccc3)NC(=O)[C@H](C)NC(=O)C(C)(C)NC(=O)[C@H](Cc3cccc(C(=O)O)c3)NC(=O)[C@H](CC(=O)O)NC1=O)NC(=O)[C@H](CC(C)(C)C)NC(=O)[C@H](CC(=O)O)NC2=O` (stereo partly drawn) [I-376, Ac-PL3-Asp-Npg-B5-Asp-3COOHF-Aib-Ala-Phe-[oXyl]Cys-PyrS2-2F3MeF-BztA-Cys-Ala-NH2]: the IC50 was more than 10000 nM against beta-catenin/TCF4 and 200 to 750 nM on beta-catenin.

Turning to `CC(=O)N1CCC[C@]12CC=CCCCC1(CCCC=CCCCOC(=O)N3CC[C@@]4(C3)NC(=O)[C@H](CSCc3ccc(cc3)CSC[C@@H](C(=O)N[C@@H](C)C(N)=O)NC(=O)[C@H](Cc3csc5ccccc35)NC(=O)[C@H](Cc3ccccc3C(F)(F)F)NC4=O)NC(=O)[C@H](Cc3ccccc3)NC(=O)[C@H](C)NC(=O)C(C)(C)NC(=O)[C@H](Cc3cccc(C(=O)O)c3)NC(=O)[C@H](CC(=O)O)NC1=O)NC(=O)[C@H](CC(C)(C)C)NC(=O)[C@H](CC(=O)O)NC2=O` (stereo partly drawn) [I-377, Ac-PL3-Asp-Npg-B5-Asp-3COOHF-Aib-Ala-Phe-[pXyl]Cys-PyrS2-2F3MeF-BztA-Cys-Ala-NH2], the IC50 was in the range of 3000 to 10000 nM against beta-catenin/TCF4 and 50 to 200 nM at beta-catenin.
